pIC50: −log10 of the molar value.
Tests used:
[1] = biological target: BanLec, recombinant wild type (rBanLec, codon-optimized cDNA from gi71042661, C-terminal 6×His tag) (Musa acuminata, UniProt O22321); experiment: Glycocluster inhibition of lectin binding to surface-immobilized mannose neoglycoprotein; parameters: species or system banana; details: read-out: IC50 of WT; 0.5 μg neoglycoprotein coating, 0.5 μg/ml labeled WT lectin; concentrations normalized to mannose (cpds 1-8) and maltose (cpds 9-11)
[2] = biological target: BanLec variant H84T (recombinant, 6×His tag) (Musa acuminata, UniProt O22321, H84T); details: read-out: IC50 of H84T; 0.5 μg neoglycoprotein coating, 1 μg/ml labeled mutant lectin; concentrations normalized to mannose (cpds 1-8) and maltose (cpds 9-11)
[3] = system: BanLec variant H84T (recombinant, 6×His tag); details: IC50 of WT compared with IC50 of H84T

Amino acid sequences for entries named in this document (tags omitted). Residues count along the entry.
UniProt O22321, 1-141: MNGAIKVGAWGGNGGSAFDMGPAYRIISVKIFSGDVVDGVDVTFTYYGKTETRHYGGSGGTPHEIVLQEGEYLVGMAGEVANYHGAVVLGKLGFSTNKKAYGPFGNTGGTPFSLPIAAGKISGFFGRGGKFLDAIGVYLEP
UniProt O22321, 1-141 H84T: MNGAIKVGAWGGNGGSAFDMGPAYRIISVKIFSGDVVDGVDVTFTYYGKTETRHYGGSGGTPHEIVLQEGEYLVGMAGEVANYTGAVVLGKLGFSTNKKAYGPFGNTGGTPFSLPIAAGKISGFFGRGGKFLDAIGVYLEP

Structure (SMILES): O=C(N[C@@H]1O[C@H](CO[C@H]2O[C@H](CO)[C@@H](O)[C@H](O)[C@@H]2O)[C@@H](O)[C@H](O)[C@H]1O)c1ccc(C(=O)N[C@@H]2O[C@H](CO[C@H]3O[C@H](CO)[C@@H](O)[C@H](O)[C@@H]3O)[C@@H](O)[C@H](O)[C@H]2O)cc1
- pIC50 [1]: 3.22
- pIC50 [2]: 4.00
- Fold Change (IC50, WT vs H84T) [3]: 6

— patent US10450355B2, “Lectins and uses thereof” (THE REGENTS OF THE UNIVERSITY OF MICHIGAN, priority 2014, dated 2019)
